Measured values reported in US6824928B2, “Organic borate compounds and the nonaqueous electrolytes and lithium secondary batteries using the compounds” (Hitachi, Ltd., priority 2000, dated 2004).

What was measured:
[1] = solvent A: PC/DMC 1:2; at the dissolved concentration (about 0.1 M)
[2] = Electroconductivity in fluorinated solvent B (HFE7100/DMC 80:20); type: physicochemical

For “Lithium bis-salicylate borate [reference compound]”, the “electroconductivity of the nonaqueous electrolyte” value [1] was 0.43 mS/cm and the “electroconductivity (result in words)” value [2] was “no electroconductivity has been measurable”.
